Reference: patent US4590193A, “3-(2-(4-phenylpiperazinylethyl)anilino)-isobenzofuranones, their method of preparation and their use as antihypertensive and antiallergic drugs” (Societe Cortial, S.A., priority 1982, dated 1986)

Amino acid sequences for entries named in this document (tags omitted).
UniProt P31389, whole entry: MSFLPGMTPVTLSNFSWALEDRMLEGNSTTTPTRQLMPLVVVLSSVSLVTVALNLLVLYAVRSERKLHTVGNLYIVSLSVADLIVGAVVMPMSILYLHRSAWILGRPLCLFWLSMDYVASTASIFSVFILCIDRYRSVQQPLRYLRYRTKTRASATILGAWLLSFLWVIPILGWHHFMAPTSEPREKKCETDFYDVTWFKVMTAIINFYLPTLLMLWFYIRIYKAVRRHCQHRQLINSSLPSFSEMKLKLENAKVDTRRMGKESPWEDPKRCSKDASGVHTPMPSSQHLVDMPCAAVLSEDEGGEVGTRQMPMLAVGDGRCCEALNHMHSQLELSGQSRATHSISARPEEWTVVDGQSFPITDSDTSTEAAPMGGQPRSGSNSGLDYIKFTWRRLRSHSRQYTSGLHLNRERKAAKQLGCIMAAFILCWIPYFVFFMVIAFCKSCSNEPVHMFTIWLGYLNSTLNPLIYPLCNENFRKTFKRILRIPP

Target: T1, contractions induced by histamine on a guinea pig ileum (Cavia porcellus, UniProt P31389)
T1 construct: on a guinea pig ileum; from tissue; host or cells: isolated guinea pig ileum
Test: In vitro antihistamine activity: inhibition of histamine-induced contractions of guinea pig ileum
Assay type: cell-based
Details: histamine 10^-8 g/l; time of contact 15 mm
Description: The antagonist is administered at the same time as the agonist or before. In the latter case, the time of contact between the antagonist and the organ isolated before the introduction of the agonist is shown in Table III.

Q: CC(CN1c2ccccc2Sc2ccccc21)N(C)C (stereo not shown) [Promethazine, reference compound] was tested. Which IC50 did it give?
A: The IC50 was 4.93 nM.
